Target: hROMK (hKir1.1) (Homo sapiens (Human), UniProt P48048)
Test: Thallium Flux Assay (ROMK channel functional thallium flux, FLIPR-Tetra)
Type: cell-based
Settings: HEK293 cells stably expressing hROMK (hKir1.1)
Method: Cell Culture Conditions—HEK293 cells stably expressing hROMK (hKir1.1) were grown at 37° C. in a 10% CO2 humidified incubator in complete growth media: Dulbecco's Modified Eagle Medium supplemented with non-essential amino acids, Penicillin/Streptomycin/Glutamine, G418 and FBS. At >80% confluency, aspirate the media from the flask and rinse with 10 mL Calcium/Magnesium-free PBS. […] To dislodge the cell, gently bang the side of the flask with your hand. Triturate the cells completely and then transfer the cells to 25 mL complete media. Centrifuge at 1,500 rpm for 6 min followed by resuspension in complete growth media and determine cell concentration. […] Under ideal growth conditions and appropriate tissue culture practices, this cell line is stable for 40-45 passages.
FluxOR Kit Components (Invitrogen F10017) • FluxOR™ Reagent (Component A) • FluxOR™ Assay Buffer (Component B)—10× Concentrate • PowerLoad™ Concentrate (Component C)—100× Concentrate • Probenecid (Component D)—Lyophilized sample is kept at −20° C. Water soluble, 100× after solubilization in 1 mL water. […]
Data Calculation—The fluorescence intensity of wells containing 3 μM of a standard control ROMK inhibitor of the present invention is used to define the ROMK-sensitive component of thallium flux. Fluorescence in the presence of test compounds is normalized to control values to provide % fluorescence change.

Chains of the proteins cited; added tags and fusions are not shown. Lines headed by an entry give the natural chain unless they say otherwise; changes in a name come on top.
UniProt P48048: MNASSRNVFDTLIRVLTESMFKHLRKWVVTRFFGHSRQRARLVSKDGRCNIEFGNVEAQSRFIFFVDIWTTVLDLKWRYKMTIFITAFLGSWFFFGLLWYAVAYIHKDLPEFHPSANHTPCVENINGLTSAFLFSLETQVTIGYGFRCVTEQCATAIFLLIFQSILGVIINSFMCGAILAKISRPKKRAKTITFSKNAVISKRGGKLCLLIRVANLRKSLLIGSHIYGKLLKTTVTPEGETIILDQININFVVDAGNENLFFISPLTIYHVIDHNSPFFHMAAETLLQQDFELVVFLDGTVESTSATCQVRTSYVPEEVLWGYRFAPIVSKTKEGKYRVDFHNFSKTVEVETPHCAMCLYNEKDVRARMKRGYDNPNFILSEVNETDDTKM

C[C@@H]1Cc2cc([C@@H]3CN4CCN(C(=O)C5CCc6cc(-n7cnnn7)ccc65)C[C@H]4CO3)ccc2C(=O)O1 (single isomer, unassigned) [Example 84]
IC50: 400 nM

C[C@@H]1Cc2cc([C@@H]3CN4CCN(C(=O)C5CCc6cc(-n7cnnn7)ccc65)C[C@H]4CO3)ccc2C(=O)O1 (single isomer, unassigned) [Example 85]
IC50: 150 nM

Source: patent publication US9573961B2, “Inhibitors of the renal outer medullary potassium channel” (Merck Sharp & Dohme Corp., priority 2012, dated 2017)
